Results from patent publication US20050222258A1, “Pharmaceuticals comprising shikonins as active constituent” (priority 2003, published 2005).

Biological target: HIV-1 reverse transcriptase (Human immunodeficiency virus type 1 group M subtype B, UniProt P04585)
Experiment: invitro test resisting HIV-1 reverse transcriptase

SMILES: O=C(O)P(=O)(O)O [PFA]
- IC50, Resisting HIV reverse transcriptase: 0.097 µg/mL (≈ 0.77 µM)

≈ marks a conversion by molar mass, not a printed value.
